# Assay results as given in PubChem BioAssay AID504441 (Broad Institute, 2011).
# The list shows a part of the results, in another mix than the full data. Calls of active or inactive are those of the source. Cut-off read from the data, not from the text of the source: active = inhibition above about 50%; inactive = the rest.
# Target: Dual specificity tyrosine-phosphorylation-regulated kinase 1A (Rattus norvegicus) (UniProt Q63470)
# Assay: rat Dyrk1A kinase inhibitors, primary screen, biochemical, single point, plate reader (AID 504441);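 note: plate controls were vehicle with enzyme for no effect and no enzyme for full effect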
# Conditions: ADP-Glo luminescence, NFATc1 peptide, at 12.5 µM, stronger effect = higher value
row,Compound,inhibition
1,CCC(=O)N(c1ccccc1)C1(COC)CCN(CCn2nnn(CC)c2=O)CC1,inactive: -13.1%
2,CCC(=O)N(c1ccccc1)C1(COC)CCN(CCc2cccs2)CC1,inactive: -10.8%
